In BindingDB's records for PubMed 1706716 (Duke University, 1991):

Target: T1, Alpha-1A adrenergic receptor (Bos taurus, UniProt P18130)
T1 sequence (P18130 whole entry): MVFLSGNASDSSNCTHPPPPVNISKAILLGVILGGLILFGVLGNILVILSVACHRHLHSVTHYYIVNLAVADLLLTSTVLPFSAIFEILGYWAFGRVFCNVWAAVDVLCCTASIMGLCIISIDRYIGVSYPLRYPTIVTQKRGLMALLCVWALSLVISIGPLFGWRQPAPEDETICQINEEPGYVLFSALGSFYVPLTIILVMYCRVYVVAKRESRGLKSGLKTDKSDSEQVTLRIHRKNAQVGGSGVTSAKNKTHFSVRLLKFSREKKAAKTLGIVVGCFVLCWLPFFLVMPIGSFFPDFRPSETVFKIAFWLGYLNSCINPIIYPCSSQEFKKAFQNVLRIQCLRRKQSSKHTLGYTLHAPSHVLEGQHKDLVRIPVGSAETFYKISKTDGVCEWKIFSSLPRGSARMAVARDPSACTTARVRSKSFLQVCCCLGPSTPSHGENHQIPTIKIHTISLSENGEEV

Ki: 6.25 µM
Structure (SMILES): CNCC(O)c1ccc(O)c(O)c1 (stereo unspecified) [EPINEPHRINE]
